## Yeast mating assay B: variants of the scFv Ab-14

The target is the same throughout: PDVDLGDISGINAS, from the HR2 region of SARS-CoV-2 spike.

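Phage display of a naive human antibody library on the peptide gave the parent. The variants were designed computationally from a first round of random CDR variants and then made and measured. Group labels follow the data file (Ctrl: baseline library sampled from a position-specific scoring matrix, with some repeated check sequences; Rand: our label for a block that the file lists under HC and that is probably the random mutants of the ten best first-round binders; En: ensemble of fine-tuned language models; GP: Gaussian process model; GPLM: also part of the Gaussian process libraries; HC: hill climbing; Gen: genetic algorithm; Gibbs: Gibbs sampling; a sequence that several methods proposed may carry one label only). Affinity was read by AlphaSeq, a pooled yeast mating assay with surface-displayed partners. The frequency of each diploid, read from paired DNA barcodes, reflects how well the two displayed proteins bind. Read counts were normalised to the haploid input and turned into Kd by a linear fit to BCL2-family pairs of known affinity, for each replicate. The assay was run in six technical replicates.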

Each scFv is VH, the linker GGGGSGGGGSGGGGS, VL, as in the parent Ab-14, and differs from it in the CDRs of the heavy chain only.
VH: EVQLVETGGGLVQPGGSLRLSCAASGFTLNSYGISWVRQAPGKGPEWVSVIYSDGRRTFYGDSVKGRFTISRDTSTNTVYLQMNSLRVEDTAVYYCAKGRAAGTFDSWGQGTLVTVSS
VL: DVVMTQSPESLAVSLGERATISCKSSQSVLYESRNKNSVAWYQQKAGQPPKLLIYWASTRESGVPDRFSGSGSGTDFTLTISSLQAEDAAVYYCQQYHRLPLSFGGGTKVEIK

Variants are written as CDR1, CDR2 and CDR3 of the heavy chain (limits as in the source). Parent: GFTLNSYGIS, VIYSDGRRTFYGDSVK, GRAAGTFDS.
The read-out is the apparent dissociation constant on a log10 scale (nM): the lower, the stronger.
Replicates are averaged; those with no signal do not enter the mean.
"no signal" means that the variant was in the library but no mating with the target was seen in any replicate; the authors take this as a sign of poor binding, and no number exists.
The parent sequence was in this pool as ten entries: three were never detected, three once, and four in most replicates, with averages from 0.34 to 2.37.
As a blank, each scFv also met three strains without target: over all heavy chain designs, 1% of these pairings were detected, typically at 2.08 and seldom below 0.84. Also given: how often the same scFv was detected with the empty control strains.
A sequence measured in both rounds can read differently, since the two assays cover different ranges.
The authors averaged sequences with at least three values out of six and counted those with two or fewer as poor binders.

For GFDLNEYGIS | VIYADGMRTFYSDSVK | GEQAGTFVS [En_HC], the assay gave 0.26 (6 of 6 replicates; controls 1 of 18).
For GFNLDEYGIS | VIYADGVRTFYADSVK | GQVAGTFDS [En_HC], the assay gave -0.40 (6 of 6 replicates; controls 1 of 18).
For SFELNMYGIS | VIYSDGRRTFYGDSVK | GKTAGTFDS [GP_Gibbs], the assay gave no signal (0 of 6 replicates; controls 0 of 18).
For GFSLNDYGIS | VIYSDGRRTMYGDSVK | GRAAGTFDS [GP_HC], the assay gave 0.87 (6 of 6 replicates; controls 1 of 18).
For GFSLNEYGIS | VIYSDGRRTQYIDSVK | GRAAGTFDS [GP_HC], the assay gave 0.62 (6 of 6 replicates; controls 0 of 18).
For HFELNSYGIS | VIYSDGRRTFYADSVK | GKTAGTFDS [GP_Gibbs], the assay gave 0.95 (6 of 6 replicates; controls 2 of 18).
For GFTLNEYGIS | VIYSDGRRTFYSDSVK | GQEAGTFDS [GP_HC], the assay gave 0.36 (6 of 6 replicates; controls 1 of 18).
For GFNLNTYGIS | VIYSDGRRTFYGDSVK | GKAAGTFDS [GPLM_Gibbs], the assay gave 1.23 (4 of 6 replicates; controls 0 of 18).
For GFTLNSYGIS | VIYSDGQRTFYSDSVK | GRAVGTFDS [GP_HC], the assay gave no signal (0 of 6 replicates; controls 0 of 18).
For WFTLESYGIS | VIYADGRRTFYGDSVK | GRAAGTFKS [GP_HC], the assay gave no signal (0 of 6 replicates; controls 0 of 18).
For GFDLDEYGIS | VIYADGRRTFYSDSVK | GSTAGTFDV [En_HC], the assay gave -0.58 (6 of 6 replicates; controls 1 of 18).
For GFTLNSYGIS | VIYSDGRRTFYGDSVK | CGATGAGDS [Ctrl], the assay gave 3.01 (1 of 6 replicates; controls 0 of 18).
For GFTLNSYGIS | VIYSDGRRTFYGDSVK | GDAAGTFDQ [Ctrl], the assay gave 2.10 (6 of 6 replicates; controls 0 of 18).
For GFTLNSYGIS | VIRSDGRRTFYGDSVK | GRAAGTFTS [Ctrl], the assay gave no signal (0 of 6 replicates; controls 0 of 18).
For GFNLNMYGSS | VIYADGRRTFYGDSVK | GRAAGTAHS [Ctrl], the assay gave 1.64 (1 of 6 replicates; controls 0 of 18).
For GFDIQDLGIS | VIYADGQRTAYSDGFK | GLIAGTFNT [En_Gibbs], the assay gave -0.04 (6 of 6 replicates; controls 0 of 18).
For GFDMEEFGIS | VIYADGQRLAYADEVK | GENAGSFDI [En_Gibbs], the assay gave 0.48 (5 of 6 replicates; controls 0 of 18).
For GFDLNSYGIS | VIYSDGRRTFYQDSVK | GRTAGTFDC [GP_Gen], the assay gave 0.63 (6 of 6 replicates; controls 0 of 18).
For HFTVNSYGIS | VIYSDGRRTFYGDSVK | GRAAGTFDS [Ctrl], the assay gave no signal (0 of 6 replicates; controls 0 of 18).
For GFDLDEYGIS | VIYADGRRTFYADSVK | GGNAGTFDV [En_HC], the assay gave -0.40 (6 of 6 replicates; controls 0 of 18).
For GFTLNEYGIS | VIYSDGRRTFYGDSVK | GRAALTFDF [GPLM_HC], the assay gave no signal (0 of 6 replicates; controls 0 of 18).
For GFTLNSYGIS | VIYSDGRRTFYGNSVK | GNVAGTFDK [Ctrl], the assay gave 1.29 (6 of 6 replicates; controls 1 of 18).
For GFNLDEYGIS | VIYADGYRRAYAQSVK | GMNSGTGFT [En_Gibbs], the assay gave no signal (0 of 6 replicates; controls 0 of 18).
For GFTLNQYGIS | VIYSDGTRTFYSDSVK | GRAAGFFDS [Rand], the assay gave 2.83 (1 of 6 replicates; controls 1 of 18).
For GFTLNDYGIS | VIQSDGRRTFYGDSVK | GRAPLTFWS [Rand], the assay gave no signal (0 of 6 replicates; controls 1 of 18).
For GFTLNSYGIS | VIISDGRPTFYDDSVK | GQLAGTHDS [Rand], the assay gave no signal (0 of 6 replicates; controls 0 of 18).
For GFTLNSYGIS | VIYSDGFRTFYGDSVK | GRAAFTFDS [Ctrl], the assay gave no signal (0 of 6 replicates; controls 0 of 18).
For GFNLNSYGIS | VIYSDGRRTFYGQSVD | GRAAGTFDS [Ctrl], the assay gave 2.95 (1 of 6 replicates; controls 0 of 18).
For GFDLDEYGIS | VIYADGIRSVYADSVK | GTGGGTIEA [En_Gibbs], the assay gave 1.55 (5 of 6 replicates; controls 0 of 18).
For GFALDEYGIS | VIYADGSRTVYAGDVK | GMLGVNFTM [En_Gibbs], the assay gave no signal (0 of 6 replicates; controls 0 of 18).
For GFDLNEYGIS | VIYADGRRTAYKDSVK | GEVAGTFDV [En_HC], the assay gave -0.56 (6 of 6 replicates; controls 1 of 18).
For GFTLNSYGIS | VIYSDGRRQAYQDSVK | GSAAGTFDS [Ctrl], the assay gave 1.03 (5 of 6 replicates; controls 0 of 18).

Again, the first 4 entries without any signal:

CDR-H1,CDR-H2,CDR-H3,group,mean log10 Kd (nM),replicates with signal,signal with controls
SFELNMYGIS,VIYSDGRRTFYGDSVK,GKTAGTFDS,GP_Gibbs,no signal,0/6,0/18
GFTLNSYGIS,VIYSDGQRTFYSDSVK,GRAVGTFDS,GP_HC,no signal,0/6,0/18
WFTLESYGIS,VIYADGRRTFYGDSVK,GRAAGTFKS,GP_HC,no signal,0/6,0/18
GFTLNSYGIS,VIRSDGRRTFYGDSVK,GRAAGTFTS,Ctrl,no signal,0/6,0/18

Source: Li et al. 2023 (doi:10.1038/s41467-023-39022-2), MIT Lincoln Laboratory and A-Alpha Bio; data file from the FLAb repository.